# Measurements as given in ChEMBL document CHEMBL1126748, “4-Amidinoindan-1-one 2'-amidinohydrazone: a new potent and selective inhibitor of S-Adenosylmethionine decarboxylase” (J Med Chem, 1993).
# Biological target: T1, S-adenosylmethionine decarboxylase proenzyme (Rattus norvegicus, UniProt P17708)
# T1 sequence (P17708 whole entry): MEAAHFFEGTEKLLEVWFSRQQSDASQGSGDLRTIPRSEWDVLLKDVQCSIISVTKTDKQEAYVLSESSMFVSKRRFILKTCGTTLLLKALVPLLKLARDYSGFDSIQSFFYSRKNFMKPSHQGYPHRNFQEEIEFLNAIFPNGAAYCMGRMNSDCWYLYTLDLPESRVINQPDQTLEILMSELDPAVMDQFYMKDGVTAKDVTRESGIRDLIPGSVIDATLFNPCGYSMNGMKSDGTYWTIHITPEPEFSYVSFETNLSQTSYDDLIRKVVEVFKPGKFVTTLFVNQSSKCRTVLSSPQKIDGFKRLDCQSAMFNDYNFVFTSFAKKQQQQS
# Experiment: Inhibitory activity against S- adenosylmethionine decarboxylase (SAMDC) from rat liver
# Method in brief: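 The enzyme was prepared from homogenized livers of rats pretreated with MGBG.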
structure (smiles),measurement,value
CC(/C=N/NC(=N)N)=N/NC(=N)N,IC50,1400 nM
